Where only a bound is given, the exact number is not on record here.

The chains behind the UniProt entries cited, without tags or fusion partners. Residues count along the entry.
UniProt P36888, 564-993: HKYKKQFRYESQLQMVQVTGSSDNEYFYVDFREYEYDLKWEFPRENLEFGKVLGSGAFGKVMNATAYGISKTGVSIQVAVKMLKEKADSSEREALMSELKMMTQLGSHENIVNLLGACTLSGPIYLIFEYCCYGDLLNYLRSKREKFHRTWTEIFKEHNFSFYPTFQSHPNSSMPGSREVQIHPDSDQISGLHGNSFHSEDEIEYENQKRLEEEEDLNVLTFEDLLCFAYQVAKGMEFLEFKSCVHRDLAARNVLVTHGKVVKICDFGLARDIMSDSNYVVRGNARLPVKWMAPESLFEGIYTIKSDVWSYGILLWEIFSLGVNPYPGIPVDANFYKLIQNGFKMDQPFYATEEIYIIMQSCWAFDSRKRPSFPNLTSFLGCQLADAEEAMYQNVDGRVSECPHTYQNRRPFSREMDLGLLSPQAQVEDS
UniProt P10721, 544-976: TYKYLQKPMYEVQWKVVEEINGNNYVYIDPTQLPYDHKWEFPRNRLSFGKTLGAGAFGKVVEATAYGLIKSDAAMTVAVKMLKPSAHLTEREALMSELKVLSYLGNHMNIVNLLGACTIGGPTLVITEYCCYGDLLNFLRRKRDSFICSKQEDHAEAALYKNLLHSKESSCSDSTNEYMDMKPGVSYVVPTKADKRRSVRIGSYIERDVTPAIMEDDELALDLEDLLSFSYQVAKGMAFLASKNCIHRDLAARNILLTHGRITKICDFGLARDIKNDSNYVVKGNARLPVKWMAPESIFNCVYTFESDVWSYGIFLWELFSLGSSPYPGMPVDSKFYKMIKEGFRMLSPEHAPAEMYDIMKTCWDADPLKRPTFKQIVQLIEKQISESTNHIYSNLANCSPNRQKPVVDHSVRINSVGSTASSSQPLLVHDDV

Assay [1] addresses FLT3 cytoplasmic domain (GST fused protein) (Homo sapiens (Human), UniProt P36888). In words: Biochemical assay for inhibitors of FLT3 kinase activity. The settings on record: 2 nM pre activated enzyme, 254 microM ATP, 60 minutes at r.t. Here is the method: FLT3 cytoplasmic domain (aa 564-993end of the 993 aminoacid long full length sequence, accession number P36888 of UniProtKB/Swiss-Prot. database) was amplified by PCR starting from a testis cDNA library and then cloned into pVL vector for expression in insect cells through the baculovirus system. The GST-FLT3 cytoplasmic domain has been expressed in Sf21 cells infected for 72 hours at 27° C. The recombinant protein has been purified by affinity on GSH-sepharose and eluted with glutathione. A further purification step has been performed on heparine sepharose. […] • i. General Principle-A specific peptidic substrate was trans-phosphorylated by the kinase in the presence of ATP traced with 33Pγ-ATP. At the end of the phosphorylation reaction, the not reacted ATP, cold and radioactive, was captured by an excess of dowex ion exchange resin that eventually settled by gravity to the bottom of the reaction plate. The supernatant was subsequently withdrawn and transferred into a counting plate that was then evaluated by β-counting. • ii. […] Data Fitting-Data were analyzed by an internally customized version of the SW package “Assay Explorer” that provided sigmoidal fitting of the ten-dilutions curves for IC50 determination in the secondary assays/hit confirmation routines. […]

Assay [2] deals with KIT cytoplasmic domain (GST fused protein) (Homo sapiens (Human), UniProt P10721). The assay can be described thus: Biochemical assay for inhibitors of KIT kinase activity. The following applies: 4 nM pre activated enzyme, 4.4 microM ATP, 60 minutes at r.t. Here is the method: KIT cytoplasmic domain (aa 544-976end of the 976 aminoacid long full length sequence, accession number P10721 of UniProtKB/Swiss-Prot database) was cloned into pVL vector for expression in insect cells through the baculovirus system. The GST-KIT cytoplasmic domain has been expressed in Sf21 cells infected for 66 hrs at 27° C. The recombinant protein has been purified by affinity on GSH-sepharose and eluted with glutathione. […] • i. General Principle-A specific peptidic substrate was trans-phosphorylated by the kinase in the presence of ATP traced with 33Pγ-ATP. At the end of the phosphorylation reaction, the not reacted ATP, cold and radioactive, was captured by an excess of dowex ion exchange resin that eventually settled by gravity to the bottom of the reaction plate. The supernatant was subsequently withdrawn and transferred into a counting plate that was then evaluated by β-counting. • ii. Dowex resin preparation-500 g of wet resin (SIGMA, custom prepared resin DOWEX 1×8 200-400 mesh, 2.5 Kg) were weighed out and diluted to 2 L in 150 mM sodium formate, pH 3.00. The resin was allowed to settle down overnight and then the supernatant was discarded. […] Data Fitting-Data were analyzed by an internally customized version of the SW package “Assay Explorer” that provided sigmoidal fitting of the ten-dilutions curves for IC50 determination in the secondary assays/hit confirmation routines. […]

With `CN1CCC(N(C)c2ccc(C(=O)Nc3n[nH]c4cc(OCCOCc5ccccc5)ccc34)cc2)CC1` [Cpd. 23, N-[6-(2-Benzyloxy-ethoxy)-1H-indazol-3-yl]-4-[methyl-(1-methyl-piperidin-4-yl)-amino]-benzamide], the IC50 in assay [1] was less than 50 nM; in assay [2] it was 109 nM.

In general, IC50 refers to the concentration that inhibits the measured activity by half.

For the origin of these results see patent US9408850B2, “Substituted indazole derivatives active as kinase inhibitors” (NERVIANO MEDICAL SCIENCES S.R.L., priority 2011, dated 2016).
